# Key:
# Sequences of proteins named here, by UniProt entry; tags and fusion partners are left off.
# UniProt P81947, whole entry: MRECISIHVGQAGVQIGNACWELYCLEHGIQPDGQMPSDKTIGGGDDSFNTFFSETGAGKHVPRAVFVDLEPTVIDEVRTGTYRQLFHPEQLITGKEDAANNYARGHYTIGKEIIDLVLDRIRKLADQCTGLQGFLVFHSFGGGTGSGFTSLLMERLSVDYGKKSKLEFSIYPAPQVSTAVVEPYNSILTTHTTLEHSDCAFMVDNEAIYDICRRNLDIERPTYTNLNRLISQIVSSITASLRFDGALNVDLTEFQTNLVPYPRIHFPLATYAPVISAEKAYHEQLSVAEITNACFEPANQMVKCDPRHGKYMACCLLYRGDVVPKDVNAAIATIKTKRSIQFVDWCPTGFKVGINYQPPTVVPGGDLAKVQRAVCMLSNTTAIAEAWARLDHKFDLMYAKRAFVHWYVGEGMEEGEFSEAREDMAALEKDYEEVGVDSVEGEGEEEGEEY
# UniProt Q6B856, whole entry: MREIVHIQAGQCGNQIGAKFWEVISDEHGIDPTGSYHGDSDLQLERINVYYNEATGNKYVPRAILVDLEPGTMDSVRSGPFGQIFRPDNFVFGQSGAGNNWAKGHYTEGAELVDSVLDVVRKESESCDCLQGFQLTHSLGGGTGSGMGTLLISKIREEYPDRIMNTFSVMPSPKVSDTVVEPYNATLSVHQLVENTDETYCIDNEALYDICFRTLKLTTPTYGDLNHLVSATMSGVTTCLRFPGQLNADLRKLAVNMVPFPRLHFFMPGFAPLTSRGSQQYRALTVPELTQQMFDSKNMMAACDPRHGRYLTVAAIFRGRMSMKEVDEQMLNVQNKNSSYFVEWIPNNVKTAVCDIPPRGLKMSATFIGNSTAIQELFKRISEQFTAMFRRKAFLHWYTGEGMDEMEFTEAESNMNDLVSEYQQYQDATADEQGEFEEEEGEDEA
# OVCAR-8 = assay: Compound activity in OVCAR-8 cell line; type: cell-based; conditions: read-out: OVCAR-8 IC50 (nM) ± SD, Table 1
# NCI/ADR-RES = assay: Compound activity in a P-gp overexpressing cell line NCI/ADR-RES; type: cell-based; conditions: read-out: NCl/ADR-RES IC50 (nM) ± SD, Table 1
# tubulin [1] = target: T1, tubulin (Bos taurus, UniProt P81947+Q6B856); assay: Inhibition of [3H]colchicine binding to tubulin; conditions: for Inhibition of colchicine binding 0.5 μM inhibitor % inhibition ± SD / Inhibition of colchicine binding 5 μM inhibitor % inhibition ± SD: Table 1
# tubulin [2] = target: T1, tubulin; assay: Inhibition of tubulin assembly; type: biochemical; conditions: for IC50: read-out: Inhibition of tubulin assembly IC50 (μM ± SD), Table 1
# tumor cells = conditions: reported by Gangjee et al. 2012; cited from earlier work
IC50 (OVCAR-8) [nM],IC50 (NCI/ADR-RES) [nM],Inhibition of colchicine binding 0.5 μM inhibitor % inhibition ± SD (tubulin [1]) [%],Inhibition of colchicine binding 5 μM inhibitor % inhibition ± SD (tubulin [1]) [%],fold improved activity in inhibition of tubulin assembly (tubulin [2]; compared to lead known Compound 1) [fold],IC50 (tubulin [2]) [µM],inhibition of [3H]colchicine binding to tubulin (tubulin [1]; 5 μM) [%],SMILES,"GI50 values, growth of tumor cells (tumor cells)"
28,15,80 ± 3,96 ± 0.5,3,2.8,–,COc1ccc(N(C)c2nc(Cl)nc3cc[nH]c23)cc1,–
1000,700,88 ± 0.7,95 ± 0.8,–,10,95,COc1ccc(N(C)c2nc(C)nc3cc[nH]c23)cc1,nanomolar range

SMILES,IC50 (OVCAR-8) [nM],IC50 (NCI/ADR-RES) [nM],Inhibition of colchicine binding 0.5 μM inhibitor % inhibition ± SD (tubulin [1]) [%],Inhibition of colchicine binding 5 μM inhibitor % inhibition ± SD (tubulin [1]) [%],fold improved activity in inhibition of tubulin assembly (tubulin [2]; compared to lead known Compound 1) [fold],IC50 (tubulin [2]) [µM],inhibition of [3H]colchicine binding to tubulin (tubulin [1]; 5 μM) [%],"GI50 values, growth of tumor cells (tumor cells)"
COc1ccc(N(C)c2nc(Cl)nc3ccn(C)c23)cc1,2.5,1.3,97 ± 2.0,95 ± 0.4,–,1.1,–,–

# Source: patent US11897886B2, “Pyrazolo[4,3-d]pyrimidines as antitumor agents” (Duquesne University of the Holy Spirit, priority 2018, dated 2024)
